Results taken from PMC10165273, “Itch receptor MRGPRX4 interacts with the receptor activity–modifying proteins” (The Journal of Biological Chemistry, 2023).
Values joined by “and” are separate entries in the source; they are usually repeats but may differ in a detail not shown here. Equal entries are not always repeated.

System: mock-transfected HEK293T cells
Experiment: IP1 accumulation, mock-transfected cells
Format: cell-based, human
Design: IP1 Basal / IP1 Emax / IP1 span: unit not given here
Details: for IP1 Basal / IP1 Emax / IP1 span: Mock; for normalized IP1 accumulation: mock
[1] = HA-CALCRL-1D4 series (Fig. S4J-L)
[2] = HA-CALCRL-GFP10-1D4 series (Fig. S4G-I)

CC(C)C[C@H](NC(=O)CNC(=O)[C@H](C)NC(=O)[C@H](CC(C)C)NC(=O)[C@H](CCCNC(=N)N)NC(=O)[C@H](Cc1c[nH]cn1)NC(=O)[C@@H](NC(=O)[C@@H](NC(=O)[C@@H]1CSSC[C@H](NC(=O)[C@H](C)N)C(=O)N[C@@H](CC(=O)O)C(=O)N[C@@H]([C@@H](C)O)C(=O)N[C@@H](C)C(=O)N[C@@H]([C@@H](C)O)C(=O)N1)C(C)C)[C@@H](C)O)C(=O)N[C@@H](CC(C)C)C(=O)N[C@@H](CO)C(=O)N[C@@H](CCCNC(=N)N)C(=O)N[C@@H](CO)C(=O)NCC(=O)NCC(=O)N[C@H](C(=O)N[C@H](C(=O)N[C@@H](CCCCN)C(=O)N[C@@H](CC(N)=O)C(=O)N[C@@H](CC(N)=O)C(=O)N[C@@H](Cc1ccccc1)C(=O)N[C@H](C(=O)N1CCC[C@H]1C(=O)N[C@H](C(=O)N[C@@H](CC(N)=O)C(=O)N[C@H](C(=O)NCC(=O)N[C@@H](CO)C(=O)N[C@@H](CCCCN)C(=O)N[C@@H](C)C(=O)N[C@@H](Cc1ccccc1)C(N)=O)C(C)C)[C@@H](C)O)C(C)C)C(C)C)C(C)C [CGRP, calcitonin gene-related peptide]
IP1 Basal [1]: Unstable | IP1 Emax [1]: -0.8959 | IP1 span [1]: Unstable | IP1 Basal [2]: 0.4062 | IP1 Emax [2]: 1.291 | IP1 span [2]: 0.8853 | normalized IP1 accumulation (log [agonist] (M) -10): 0.9393 and 0.5823 and 0.6814 | normalized IP1 accumulation (log [agonist] (M) -11.5229): 0.2933
